Measurements from patent US20110009343A1, “MODULATORS OF AMYLOID AGGREGATION” (Praecis Pharmaceuticals, Inc., priority 1995, published 2011).

Chains of the proteins cited; added tags and fusions are not shown. Residues count along the entry.
UniProt P05067, 672-711: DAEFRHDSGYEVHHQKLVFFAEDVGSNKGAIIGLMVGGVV

Assays:
Type in all cases: biochemical
Aβ(1-40) peptide [1] = molecular target: T1, Aβ(1-40) peptide (Homo sapiens, UniProt P05067); assay: Seeded static assay (SSA), Thioflavin-T fluorescence; details: inhibitor tested at 100 μM and 10 μM
T1 construct: (β-AP1-40) was obtained commercially from Bachem (Torrance, Calif.); purchased Bachem (Torrance, Calif.)

Aβ(1-40) peptide [2] = molecular target: T1, Aβ(1-40) peptide; assay: Shaken plate aggregation assay (absorbance 405 nm); details: % conc relative to Aβ(1-40) as printed in cell
Aβ1-40 = molecular target: T2, Aβ1-40 (Homo sapiens, UniProt P05067); assay: Nucleation assay (turbidity, A405 nm); details: Table II; 100 mole % vs 50 μM Aβ1-40;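 also: synthetic Aβ monomer polymerization followed by turbidity in 96-well plates with continuous shaking, read every 15 minutes over 5 hours, compared against wells lacking test compound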
T2 construct: (β-AP1-40) was obtained commercially from Bachem (Torrance, Calif.); purchased Bachem (Torrance, Calif.)

| Compound | Effect in Seeded Static Assay (Aβ(1-40) peptide [1]) | Effect in shaken plate assay (Aβ(1-40) peptide [2]) | Fold Increase in Lag Time (Aβ1-40) [fold] |
| --- | --- | --- | --- |
| Candidate Inhibitor 180: Aβ1-15 modified with (−)-menthoxy acetic acid | ++ (A strong inhibitor of aggregation. The rate of aggregation in the presence of the inhibitor was decreased compared to the control by at least 30-50%) | None | – |
| CC(C)[C@H](NC(=O)[C@H](CCC(=O)O)NC(=O)[C@H](Cc1ccc(O)cc1)NC(=O)CNC(=O)[C@H](CO)NC(=O)[C@H](CC(=O)O)NC(=O)[C@H](Cc1c[nH]cn1)NC(=O)[C@H](CCCNC(=N)N)NC(=O)[C@H](Cc1ccccc1)NC(=O)[C@H](CCC(=O)O)NC(=O)[C@H](C)NC(=O)[C@H](CC(=O)O)NC(=O)CC[C@@H](C)[C@H]1CC[C@H]2[C@@H]3[C@H](O)C[C@@H]4C[C@H](O)CC[C@]4(C)[C@H]3C[C@H](O)[C@]12C)C(=O)N[C@@H](Cc1c[nH]cn1)C(=O)N[C@@H](Cc1c[nH]cn1)C(=O)N[C@@H](CCC(N)=O)C(=O)O [PPI-174] | ++ (A strong inhibitor of aggregation. The rate of aggregation in the presence of the inhibitor was decreased compared to the control by at least 30-50%) | – | – |
| CC(C)[C@H](NC(=O)[C@H](CCC(=O)O)NC(=O)[C@H](Cc1ccc(O)cc1)NC(=O)CNC(=O)[C@H](CO)NC(=O)[C@H](CC(=O)O)NC(=O)[C@H](Cc1c[nH]cn1)NC(=O)[C@H](CCCNC(=N)N)NC(=O)[C@H](Cc1ccccc1)NC(=O)[C@H](CCC(=O)O)NC(=O)[C@H](C)NC(=O)[C@H](CC(=O)O)NC(=O)CCCC[C@@H]1SC[C@@H]2NC(=N)N[C@@H]21)C(=O)N[C@@H](Cc1c[nH]cn1)C(=O)N[C@@H](Cc1c[nH]cn1)C(=O)N[C@@H](CCC(N)=O)C(=O)O [PPI-172] | – | – | 1.2 |
